## scFv variants of Ab-91 (heavy chain) against a SARS-CoV-2 spike peptide

From the AlphaSeq antibody data of Engelhart et al. 2022 (doi:10.1038/s41597-022-01779-4), copy in the FLAb collection.

Target peptide (SARS-CoV-2 spike, HR2 region): PDVDLGDISGINAS

Ab-91 is the parent antibody, in scFv form: VL, then the linker GGGGSGGGGSGGGGS, then VH. The light chain is unchanged in all variants.
VL: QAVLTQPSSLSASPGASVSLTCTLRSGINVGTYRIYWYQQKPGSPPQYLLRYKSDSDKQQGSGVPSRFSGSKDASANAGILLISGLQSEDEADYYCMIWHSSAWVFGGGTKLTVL
VH: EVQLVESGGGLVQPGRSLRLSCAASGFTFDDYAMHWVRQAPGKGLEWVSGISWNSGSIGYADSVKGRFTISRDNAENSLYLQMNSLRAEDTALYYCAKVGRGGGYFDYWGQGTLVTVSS

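The starting antibody came from a phage panning campaign against this peptide. In library AAYL51, one, two or three CDR residues were substituted; doubles and triples were drawn at random. In AlphaSeq, yeast of one mating type display the scFv and yeast of the other type display the target. The frequency of each diploid, read from paired DNA barcodes, reflects how well the two displayed proteins bind. Each replicate has its own calibration line, from reference interactions of the BCL2 family. Mating was done three times.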

Positions count from residue 1 of the parent VH; M34C puts C in place of M. Scale: log10 of Kd in nM, estimated from mating counts; low values are strong binders. Replicates are averaged; those with no signal do not enter the mean. Where no diploid with the target was found in any replicate, the entry reads "no signal": below detection, most likely a poor binder, though not proof of it. Parent in this assay: reference entry 1.86, copy in this library 0.88. Background: pairings of library AAYL51 with three empty control strains gave a value in 21% of cases (median 4.54, 5th percentile 3.26). Values in that range, when seen in few replicates, are hard to tell from nonspecific mating.

{"changes": "M34C/S63K/V99Q", "log10 Kd (nM), mean": "no signal", "replicates with signal": "0/3"}
{"changes": "D31T/S57I/Y60H", "log10 Kd (nM), mean": "no signal", "replicates with signal": "0/3"}
{"changes": "Y32N/A33W/M34S", "log10 Kd (nM), mean": "no signal", "replicates with signal": "0/3"}
{"changes": "W53P/G56L/D62H", "log10 Kd (nM), mean": "4.76", "replicates with signal": "3/3"}
{"changes": "F29H/D31N/S55D", "log10 Kd (nM), mean": "4.15", "replicates with signal": "1/3"}
{"changes": "G26L/Y32S", "log10 Kd (nM), mean": "4.76", "replicates with signal": "3/3"}
{"changes": "T28R/A33T/G56E", "log10 Kd (nM), mean": "no signal", "replicates with signal": "0/3"}
{"changes": "A33Y/H35Q/S55K", "log10 Kd (nM), mean": "4.96", "replicates with signal": "1/3"}
{"changes": "Y60L/K65I", "log10 Kd (nM), mean": "3.74", "replicates with signal": "3/3"}
{"changes": "G26S/G102E/Y108W", "log10 Kd (nM), mean": "no signal", "replicates with signal": "0/3"}
{"changes": "A33T/G103Q/D107M", "log10 Kd (nM), mean": "4.54", "replicates with signal": "3/3"}
{"changes": "H35P/V99I/Y108T", "log10 Kd (nM), mean": "3.41", "replicates with signal": "1/3"}
{"changes": "D31Q/S57T/K65W", "log10 Kd (nM), mean": "5.71", "replicates with signal": "1/3"}
{"changes": "F27E/S55T/G102E", "log10 Kd (nM), mean": "4.88", "replicates with signal": "2/3"}
{"changes": "Y32S/G50P/Y60N", "log10 Kd (nM), mean": "no signal", "replicates with signal": "0/3"}
{"changes": "S57K/K65P", "log10 Kd (nM), mean": "no signal", "replicates with signal": "0/3"}
{"changes": "T28H/D30N/A61E", "log10 Kd (nM), mean": "3.74", "replicates with signal": "1/3"}
{"changes": "G56I/G59P/V64K", "log10 Kd (nM), mean": "no signal", "replicates with signal": "0/3"}
{"changes": "H35C/I58D/G103Y", "log10 Kd (nM), mean": "4.90", "replicates with signal": "1/3"}
{"changes": "T28L/I51K/S52H", "log10 Kd (nM), mean": "5.33", "replicates with signal": "2/3"}
{"changes": "S55E/G100H", "log10 Kd (nM), mean": "5.23", "replicates with signal": "2/3"}

The 3 strongest on average among those seen in every replicate, once more:

{"changes": "Y60L/K65I", "log10 Kd (nM), mean": "3.74", "replicates with signal": "3/3"}
{"changes": "A33T/G103Q/D107M", "log10 Kd (nM), mean": "4.54", "replicates with signal": "3/3"}
{"changes": "W53P/G56L/D62H", "log10 Kd (nM), mean": "4.76", "replicates with signal": "3/3"}